Drawing on PubChem BioAssay (NCI), this text covers TGI for 1 molecule.

In this test the test system is MDA-MB-468 breast. Kind of test: NCI anticancer screen, dose series, 48 h.

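Grown in 96-well plates, cells were treated for 48 hours with each compound at five concentrations. Insufficient inhibition: endpoint recorded as highest concentration tested. TGI is the concentration that stops growth completely.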

As to `O=Cc1ccc(N(CCCl)CCCl)cc1Cl`, the TGI came out at 62.6 nM.
